How the values were obtained:
Acetylcholinesterase = Acetylcholinesterase (Homo sapiens, UniProt P22303); test: Ability to inhibit acetylcholinesterase (AChE), freshly prepared from human erythrocytes
Summary of the method: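 AChE from freshly collected blood: erythrocytes washed five times in isotonic saline, lysed in 9 volumes of 0.1 M Na3PO4 pH 7.4 with 0.5% Triton-X, diluted to final 1:200. Compounds preincubated with enzyme 30 min at room temperature, then with substrate and DTNB 25 min at 37 °C, pH 8.0. Read-out 412 nm. Final range 0.3 nM–30 mM in half-log steps. IC50 from logit-activity versus log concentration. Four runs.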

The chains behind the UniProt entries cited, without tags or fusion partners. Where a name states a change or a piece, a line headed by the entry shows the natural chain unless it says otherwise.
UniProt P22303: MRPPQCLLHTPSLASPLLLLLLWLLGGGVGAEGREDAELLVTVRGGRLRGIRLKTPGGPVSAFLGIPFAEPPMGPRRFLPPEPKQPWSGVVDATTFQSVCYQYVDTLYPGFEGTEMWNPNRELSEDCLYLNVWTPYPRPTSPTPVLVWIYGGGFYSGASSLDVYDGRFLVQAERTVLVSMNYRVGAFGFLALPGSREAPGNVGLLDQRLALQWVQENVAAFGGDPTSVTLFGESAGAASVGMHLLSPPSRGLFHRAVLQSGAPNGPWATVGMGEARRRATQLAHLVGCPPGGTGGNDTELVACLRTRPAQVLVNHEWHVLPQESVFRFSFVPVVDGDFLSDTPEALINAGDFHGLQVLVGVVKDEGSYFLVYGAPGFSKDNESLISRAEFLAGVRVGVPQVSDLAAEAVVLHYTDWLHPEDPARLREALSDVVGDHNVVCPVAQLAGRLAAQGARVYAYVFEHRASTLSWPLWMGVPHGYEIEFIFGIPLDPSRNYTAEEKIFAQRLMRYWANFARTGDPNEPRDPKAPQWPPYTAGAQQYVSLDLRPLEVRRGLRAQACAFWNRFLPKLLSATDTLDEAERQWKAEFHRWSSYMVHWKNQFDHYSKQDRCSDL
UniProt P06276, whole entry: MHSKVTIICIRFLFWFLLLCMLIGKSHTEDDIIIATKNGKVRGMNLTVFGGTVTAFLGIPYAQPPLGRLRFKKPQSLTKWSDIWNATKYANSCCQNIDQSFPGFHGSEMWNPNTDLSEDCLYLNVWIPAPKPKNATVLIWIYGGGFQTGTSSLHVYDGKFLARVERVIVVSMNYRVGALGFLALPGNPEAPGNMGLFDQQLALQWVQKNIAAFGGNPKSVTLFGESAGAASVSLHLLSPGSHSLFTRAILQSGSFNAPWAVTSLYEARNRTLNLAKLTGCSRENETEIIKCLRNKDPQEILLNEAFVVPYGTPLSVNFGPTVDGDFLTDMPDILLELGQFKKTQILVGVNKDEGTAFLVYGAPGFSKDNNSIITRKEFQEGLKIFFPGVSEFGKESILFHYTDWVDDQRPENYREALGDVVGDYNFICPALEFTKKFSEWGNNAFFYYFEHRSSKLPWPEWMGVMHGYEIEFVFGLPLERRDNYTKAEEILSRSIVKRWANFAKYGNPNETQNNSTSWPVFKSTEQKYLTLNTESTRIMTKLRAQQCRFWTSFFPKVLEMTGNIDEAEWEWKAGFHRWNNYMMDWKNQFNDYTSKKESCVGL

Cholinesterase = Cholinesterase (Homo sapiens, UniProt P06276); test: Ability to inhibit butyrylcholinesterase (BChE), freshly prepared from human plasma; format: cell-free

With CC(C)c1ccc(NC(=O)Oc2ccc3c(c2)[C@]2(C)CCN(C)C2N3C)cc1 (some centres not stated) the IC50 (Acetylcholinesterase) was 758 nM and the IC50 (Cholinesterase) was 50 nM.

Source: ChEMBL document CHEMBL1132219, “Synthesis of novel phenserine-based-selective inhibitors of butyrylcholinesterase for Alzheimer's disease” (J Med Chem, 1999)
